Experimental data taken from patent US20160347802A1.

Target: biotinylated recombinant human DCC (human) (UniProt P43146)
Test: AVEXIS, prey on bait DCC; dark = Binding

A486nm: 0.299
Substance: human Netrin1, recombinant AVEXIS protein (biotinylated when immobilised) (from UniProt O95631 25-604) (ligand)
